Values quoted from earlier work in publication PMC3095849 (Bioorganic & medicinal chemistry, 2011).

The chains behind the UniProt entries cited, without tags or fusion partners. Where a name states a change or a piece, a line headed by the entry shows the natural chain unless it says otherwise.
UniProt P41145: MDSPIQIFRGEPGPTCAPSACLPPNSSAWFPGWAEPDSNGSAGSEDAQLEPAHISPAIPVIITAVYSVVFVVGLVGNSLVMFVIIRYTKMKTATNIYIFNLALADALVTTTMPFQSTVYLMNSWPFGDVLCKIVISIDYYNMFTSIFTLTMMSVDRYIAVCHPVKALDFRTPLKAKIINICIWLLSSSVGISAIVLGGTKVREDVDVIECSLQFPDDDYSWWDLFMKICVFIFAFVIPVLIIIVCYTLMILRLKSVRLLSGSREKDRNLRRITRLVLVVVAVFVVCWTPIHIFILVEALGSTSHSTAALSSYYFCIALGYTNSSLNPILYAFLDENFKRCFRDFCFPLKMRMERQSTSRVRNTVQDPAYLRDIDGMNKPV

Biological target: human κ opioid receptor (Homo sapiens, UniProt P41145)
Settings: cited from earlier work

SMILES: Oc1ccc2c(c1)[C@@]13CCCC[C@H]1[C@@H](C2)N(CC1CCC1)CC3 [Compound 1, butorphan]
- Selectivity μ : κ : δ: 3/1/75
